The target in this test is KRas G12C (Homo sapiens, UniProt P01116, C118S/C51S/C80L/G12C). Kind of test: KRas G12C Modification Assay (LCMS detection of covalent adduct). In kind it is binding. To be noted: normalized percent of control; tested at 5 μM concentration for 3 hours.

Structures are written as SMILES.

For `C=CC(=O)N1CCN(c2nc(OC[C@@H]3CCCN3C)nc3c2CCN(c2cccc4ccccc24)C3)CC1` [Example 200, (S)-1-(4-(2-((1-methylpyrrolidin-2-yl)methoxy)-7-(naphthalen-1-yl)-5,6,7,8-tetrahydropyrido[3,4-d]pyrimidin-4-yl)piperazin-1-yl)prop-2-en-1-one], the POC result is listed as “C (“C”>50% POC)”. On to `C=CC(=O)N1CCN(c2nc(OC[C@H]3CCCN3C)nc3c2CCN(c2cc(O)cc4ccccc24)C3)CC1` [Example 187, (R)-1-(4-(7-(3-hydroxynaphthalen-1-yl)-2-((1-methylpyrrolidin-2-yl)methoxy)-5,6,7,8-tetrahydropyrido[3,4-d]pyrimidin-4-yl)piperazin-1-yl)prop-2-en-1-one], for which the POC entry was “C (“C”>50% POC)”. Regarding `C=CC(=O)N1CCN(c2nc(OC[C@@H]3CCCN3C)nc3c2CCN(c2cc(O)cc4ccccc24)C3)CC1` [Example 127, (S)-1-(4-(7-(3-hydroxynaphthalen-1-yl)-2-((1-methylpyrrolidin-2-yl)methoxy)-5,6,7,8-tetrahydropyrido[3,4-d]pyrimidin-4-yl)piperazin-1-yl)prop-2-en-1-one], the POC entry is on record as “C (“C”>50% POC)”.
